Assay results published in patent US4803223A (priority 1985, dated 1989).

Tested on: CD2F1-strain mice
Experiment: Acute toxicity in mice
Settings: i.p., 20 days, Litchfield and Wilcoxon
Experimental: A CACU solution prepared as in Test Example A was injected intraperitoneally into CD2F1 -strain mice (male) having a body weight of about 20 g in an amount of 2512, 1995, 1585, 1259, 1000 and 994 mg/kg, and the acute toxicity test was carried out for 20 days. The acute toxicity value (LD50) was determined by the method of Litchfield and Wilcoxon, and found to be 1025 mg/kg.

O=C(NCCCl)Nc1ccc(N(CCCl)CCCl)cc1
acute toxicity value (LD50): 1025 mg/kg
